Test results reported in ChEMBL document CHEMBL1127274, “Evaluation of (2S,4S)/(2R,4R) and (2S,4R)/(2R,4S) 6,6-N,N-dimethyl-2-methyl-2-oxo-1,3-dioxa-4-hexadecyl-6,aza-2-phosphacyclooctane bromide as inhibitors for protein kinase C, carnitine octanoyltransferase, and carnitine palmitoyltransferase” (Bioorg Med Chem Lett, 1994).

Assay: Inhibition of mouse Protein Kinase C alpha and beta-2

Row | SMILES | IC50
1 | CCCCCCCCCCCCCCCCC1C[N+](C)(C)CCO[P@@](C)(=O)O1 (some centres not stated) | 9.9 µM
2 | CCCCCCCCCCCCCCCCC1C[N+](C)(C)CCO[P@](C)(=O)O1 (some centres not stated) | 4.8 µM
